The numbers were not newly measured in patent publication US12421227B2, “Ribociclib salts and solid state forms thereof” (ASSIA CHEMICAL INDUSTRIES LTD., priority 2017, dated 2025), which cites them from elsewhere.

The conditions of the data set: cited from earlier work.

With “Ribociclib succinate [form I of Ribociclib succinate]”, under “after exposure to 95% RH”, the “solid form after exposure to humidity” value was “didn't change”. The “stability at high humidity” value (high humidity) is recorded as “stable”.
